Data as given in paper PMC5177531 (ACS chemical neuroscience, 2016).

Chains of the proteins cited; added tags and fusions are not shown. Residues count along the entry.
UniProt P32300, whole entry: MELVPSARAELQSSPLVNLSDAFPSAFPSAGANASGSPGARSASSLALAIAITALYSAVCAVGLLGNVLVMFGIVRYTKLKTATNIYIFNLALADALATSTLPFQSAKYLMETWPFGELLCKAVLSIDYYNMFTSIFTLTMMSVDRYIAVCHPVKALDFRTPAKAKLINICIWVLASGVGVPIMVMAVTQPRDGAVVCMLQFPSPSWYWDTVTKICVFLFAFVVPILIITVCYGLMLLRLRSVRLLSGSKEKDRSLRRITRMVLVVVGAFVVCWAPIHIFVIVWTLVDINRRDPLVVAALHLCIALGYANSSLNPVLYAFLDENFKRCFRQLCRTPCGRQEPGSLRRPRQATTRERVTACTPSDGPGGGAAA
UniProt P42866, 99-386 limits assumed: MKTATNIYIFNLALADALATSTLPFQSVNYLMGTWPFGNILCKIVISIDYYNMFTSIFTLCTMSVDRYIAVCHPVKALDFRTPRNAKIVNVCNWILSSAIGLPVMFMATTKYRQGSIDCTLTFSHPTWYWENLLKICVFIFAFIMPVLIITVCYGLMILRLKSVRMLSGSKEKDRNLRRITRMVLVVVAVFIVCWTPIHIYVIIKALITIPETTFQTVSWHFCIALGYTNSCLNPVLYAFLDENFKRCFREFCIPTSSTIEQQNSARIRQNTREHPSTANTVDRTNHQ
UniProt P42866, whole entry: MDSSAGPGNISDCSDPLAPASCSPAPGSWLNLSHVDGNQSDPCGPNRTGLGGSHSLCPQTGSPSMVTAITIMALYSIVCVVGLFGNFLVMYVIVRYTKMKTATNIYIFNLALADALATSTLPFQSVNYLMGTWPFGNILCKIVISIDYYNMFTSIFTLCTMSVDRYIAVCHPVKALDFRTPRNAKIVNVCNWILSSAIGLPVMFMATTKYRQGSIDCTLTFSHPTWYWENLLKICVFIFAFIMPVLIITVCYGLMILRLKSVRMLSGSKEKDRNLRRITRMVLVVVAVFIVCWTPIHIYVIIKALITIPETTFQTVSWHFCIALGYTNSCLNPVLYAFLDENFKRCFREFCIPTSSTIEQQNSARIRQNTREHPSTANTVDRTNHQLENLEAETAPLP

Legend:
mDOR-1 = mDOR-1 (Mus musculus, UniProt P32300); assay: Competition binding versus 125I-IBNtxA in mDOR-CHO membranes
MOR-1 variants (Oprm1) = details: mouse, in vivo; cited from earlier work
6TM/E11 = 6TM/E11 (Mus musculus, UniProt P42866); assay: Competition binding versus 125I-IBNtxA at the 6TM-containing
[1] = molecular target: 125I-IDAPP binding sites in C57/Bl6 brain homogenates (Mus musculus, UniProt P42866)

CC(C)[C@H](NC(=O)[C@H](Cc1ccccc1)NC(=O)[C@H](Cc1ccccc1)NC(=O)[C@@H](C)NC(=O)[C@@H](N)Cc1ccc(O)cc1)C(N)=O [TAPPV, Tyr-D-Ala-Phe-Phe-Val-NH2]
Ki (mDOR-1): 426 ± 23 nM

Buprenorphine
MOR-1 Variants required for analgesia (MOR-1 variants (Oprm1)): 7TM + 6TM

CC[C@H](C)[C@H](NC(=O)[C@H](Cc1ccccc1)NC(=O)[C@H](Cc1ccccc1)NC(=O)[C@@H](C)NC(=O)[C@@H](N)Cc1c(C)cc(O)cc1C)C(N)=O [DAPPI, Dmt-D-Ala-Phe-Phe-Ile-NH2]
Ki (6TM/E11): 45 ± 11 nM

CCC(=O)C(CC(C)N(C)C)(c1ccccc1)c1ccccc1 (stereo not shown) [Methadone]
Hill Slope [1]: −0.7 ± 0.1
